Earlier results, collected in US8048872B2, “Treatment of hyperproliferative diseases with vinca alkaloid N-oxide and analogs” (Stat of Oregon Acting by and Through The Oregon State Board …, priority 2006, dated 2011).

Conditions: cited from earlier work
[1] = non-Hodgkin's lymphoma, Cyclophosphamide 1000 mg/m^2 IV day 1, Fludarabine 20 mg/m^2/d days 1-5, every 28 days

Paclitaxel + Carboplatin
Anemia Grade III-IV (human, in vivo, iv): 34%
Anorexia (human, in vivo, iv): Anorexia 23%
Fatigue (human, in vivo, iv): Fatigue 21%
Febrile Neutropenia (human, in vivo, iv): Febrile Neutropenia 13%
Hospitalization (for IV antibiotics) (human, in vivo, iv): IV antibiotics) 13%
Myalgia/Arthralgia (human, in vivo, iv): Myalgia/Arthralgia 6%
Neuropathy (human, in vivo, iv): Neuropathy 20%
Neurotoxicity (human, in vivo, iv): Neurotoxicity 1%
Neutropenic Fever (human, in vivo, iv): Neutropenic Fever 12%
Paresthesias (human, in vivo, iv): Paresthesia 2%

Cyclophosphamide + Fludarabine
Infectious toxicity (human, in vivo, iv): Infectious toxicity 11%
Neutropenia (first cycle, without growth factor) Grade IV (human, in vivo, iv): Grade IV 28%
Neutropenia (first cycle, without growth factor) Grade III (non-Hodgkin's lymphoma, Cyclophosphamide 1000 mg/m^2 IV day 1, Fludarabine 20 mg/m^2/d days 1-5): Grade III 26%
Pulmonary toxicity (non-Hodgkin's lymphoma, Cyclophosphamide 1000 mg/m^2 IV day 1, Fludarabine 20 mg/m^2/d days 1-5, every 28 days, Grade III-IV): Pulmonary toxicity 18%
Neutropenia (all cycles) Grade III [1]: Grade III 25% of cycles
Neutropenia (all cycles) Grade IV [1]: Grade IV 18% of cycles

cyclophosphamide+fludarabine
discontinuation of treatment because of pulmonary toxicity (human, in vivo): 11%
patients developing grade III or IV pulmonary toxicity (human, in vivo): 18%
